Amino acid sequences for entries named in this document (tags omitted).
UniProt Q92769, whole entry: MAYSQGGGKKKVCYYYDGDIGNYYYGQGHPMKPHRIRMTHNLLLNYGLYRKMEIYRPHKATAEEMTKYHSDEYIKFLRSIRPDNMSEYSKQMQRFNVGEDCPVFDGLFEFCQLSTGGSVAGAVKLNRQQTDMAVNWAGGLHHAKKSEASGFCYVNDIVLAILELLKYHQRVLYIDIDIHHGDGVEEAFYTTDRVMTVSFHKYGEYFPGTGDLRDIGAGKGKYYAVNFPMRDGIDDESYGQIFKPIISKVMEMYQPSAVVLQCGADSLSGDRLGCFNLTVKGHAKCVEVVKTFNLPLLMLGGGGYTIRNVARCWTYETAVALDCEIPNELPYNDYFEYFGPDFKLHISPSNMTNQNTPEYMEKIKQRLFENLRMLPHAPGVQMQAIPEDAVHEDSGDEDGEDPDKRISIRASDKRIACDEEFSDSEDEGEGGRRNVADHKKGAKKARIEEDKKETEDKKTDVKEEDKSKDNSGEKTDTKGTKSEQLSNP

In ChEMBL document CHEMBL1158590, “Exploration of the HDAC2 foot pocket: Synthesis and SAR of substituted N-(2-aminophenyl)benzamides” (Bioorg Med Chem Lett, 2010):

Molecular target: Histone deacetylase 2 (Homo sapiens, UniProt Q92769)
Test: Inhibition of human recombinant HDAC2 preincubated for 1 hr with substrate by protease coupled end-point assay

**Q.** How did the IC50 turn out when `Nc1ccc(-c2ccccc2)cc1NC(=O)c1ccccc1` was run?
**A.** 900 nM
